This assay deals with T1, VcFRK (Vibrio cholerae fructokinase) (Vibrio cholerae, UniProt A0A0H3AER7).
T1 construct: gene cscK

Usually Kd stands for a measure of binding affinity in units of concentration.

For the compound `OCC1(O)OC[C@@H](O)[C@@H](O)[C@@H]1O` (stereo partly drawn) [FRU, D-fructose], the equilibrium dissociation constant (Kd) turned out to be 1370 µM.
